From US20260167623A1 (NIKANG THERAPEUTICS, INC., priority 2022, published 2026) come the findings set out here.

Structures are written as SMILES.

In this assay the target is CDK2 (Homo sapiens, UniProt P24941). Briefly: Inhibition of CDK2: phospho-Rb (S807/811) HTRF measurement in OVCAR3 cells, 24 h. The settings on record: read-out: pRB_OVCAR3_24h, 24 h compound treatment. The protocol: Inhibition of CDK2: Phospho-R^b Measurement in Cells
Phosphorylation of RB protein at S807/811 were measured using HTRF phospho-RB cellular kits (Cat #64RBS807PEG) from Cisbio.
On Day 1, OVCAR3 (CDK2 dependent cell line) cells were seeded into 96-well tissue-culture treated plates at 20,000 cells/well in 200 μL and incubated overnight at 37° C. in CO2 atmosphere. On Day 2, the cells were treated with test compounds at concentrations from 0.3 to 10,000 nM using HP D300 digital dispenser. Twenty-four hours after compound treatment, cell culture media is removed by flicking the plate and tapping the plate against clean paper towel. 30 μL 1× lysis buffer was supplemented from the kit was added to each well and the plate was incubated at room temperature on shaker for 30 min. After homogenization by pipetting up and down, 8 μL cell lysate from 96-well cell culture plate was transferred to 384-well small volume white detection plate. 2 μL premixed detection solution was added and the plate was covered with sealer. […] Detection plates were incubated for 4 h at room temperature and read on ClarioStar (BMG Labtech) in TR-FRET mode ([…]). […] Half maximal inhibition concentration (IC50) values were calculated with a four-parameter logistic fit using GraphPad Prism (version 8; La Jolla, CA). […]

Regarding `Cn1nc(N2CCC(=O)NC2=O)c2ccc(C3CCN(Cc4cccc(S(=O)(=O)N5CCC(Nc6ncc(Oc7ccccc7)cn6)CC5)c4)CC3)cc21`, the IC50 is 500 to 2500 nM.
